The list shows a part of the results, in another mix than the full data. Active and inactive are the calls of the source.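 Rule for the calls: active = activation above the run cutoff, the mean activation of all test compounds plus 3 SD (cut at about 40% in these data); inactive = the rest.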
Assay: ATP EC20 calcium response enhancers, parental CHO-K1 – cell-based, Fluo-8 calcium fluorescence, full deck, 1536-well, counter-screen for M1 PAM project, primary screen (AID 602247);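 note: peak over basal fluorescence ratio in a 140 s read after ATP addition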
Details: parental CHO-K1, ATP EC20, Fluo-8 calcium fluorescence; at 3 µM; active compounds read high; 0% at ATP EC20, 100% at ATP max
In the case of CCC1=CC2Cc3nc4ccc(Cl)cc4c(N)c3C(C1)C2 (centres undefined), the activation is reported as inactive: 25.3%.
With O=P1(Nc2ccccn2)COc2ccccc2OC1 the activation was inactive: 12%.
With CCOP(=O)(NC(=NC(C)c1ccccc1)NC(C)c1ccccc1)OCC (centres undefined) the activation was inactive: 6.69%.
For CN(CCCl)Cc1cc(Cl)c(NC2=NCCN2)c(Cl)c1, the activation was inactive: 16.7%.
In the case of CCOP(=O)(Nc1ccc(C)cn1)OCC, the activation is reported as inactive: 4.91%.
For Clc1n[nH]nc1-c1nn[nH][15n]1, the activation was inactive: -7.66%.
With O=P1(N(CCCl)CCCl)NCCC(C(F)(F)F)O1 (centres undefined) the activation was inactive: 35.5%.
In the case of CC(C)(C)C(=O)NC(Sc1ncccn1)C(Cl)(Cl)Cl (centres undefined), the activation is reported as inactive: -8.9%.
In the case of COc1ccccc1CNC(=O)COC(=O)C(O)(c1ccccc1)c1ccccc1, the activation is reported as inactive: 10.7%.
In the case of CN(C(=O)Cc1ccc(Cl)c(Cl)c1)[C@@H]1CCCC[C@H]1N1CCCC1, the activation is reported as inactive: -4.22%.
With CC(C)/C=N\N=C(\N)N[N+](=O)[O-] the activation was inactive: 9.41%.
In the case of CC1(CBr)Cn2c(nc3ccccc3c2=O)S1 (centres undefined), the activation is reported as inactive: 5.16%.
With Cc1nn(-c2ccccc2)c2c1P(=O)(N1CCOCC1)N(C)C(c1ccccc1)=N2 (centres undefined) the activation was inactive: -1.93%.
With Cc1ccc(C(=O)OC2CN3CCC2CC3)cc1 (centres undefined) the activation was inactive: 0.08%.
With CC1CCC(C(C)C)C(OP(=O)(Nc2ccccn2)c2ccccc2)C1 (centres undefined) the activation was inactive: 4.43%.
With O=C(/C=C/c1ccccc1)OC1CN2CCC1CC2 (centres undefined) the activation was inactive: 25.9%.
For CCCC1OP(=O)(Nc2ccccc2)OCC1CC (centres undefined), the activation was inactive: 19.3%.
In the case of Cc1ccc(S(=O)(=O)N(CCCN)CCCc2c(C)nc(N)[nH]c2=O)cc1, the activation is reported as inactive: 16%.
For O=P1(Nc2ncccn2)COc2ccccc2OC1, the activation was inactive: 12.1%.
For Nc1cccc([As](=O)(O)c2ccccc2)c1, the activation was inactive: 3.63%.
With NS(=O)(=O)c1cccc(NC(=O)COC(=O)C(O)(c2ccccc2)c2ccccc2)c1 the activation was inactive: -8.09%.
For O=P1(Nc2ccc(Br)cn2)COc2ccccc2OC1, the activation was inactive: 20.2%.
For Cc1ccc(OCC(=O)OC2CN3CCC2CC3)cc1 (centres undefined), the activation was inactive: 25.3%.
With O=[As](O)(c1cccs1)c1cccs1 the activation was inactive: -2.05%.
In the case of CCOP1(=S)c2c(C)nn(CCC#N)c2N=C(c2ccccc2F)N1C (centres undefined), the activation is reported as inactive: 13.8%.
In the case of O=P(Nc1nccs1)(c1ccccc1)c1nc2ccccc2s1 (centres undefined), the activation is reported as inactive: 14.3%.
In the case of O=P(Nc1nccs1)(Oc1ccccc1)Oc1ccccc1, the activation is reported as inactive: 5.69%.
With CS(=O)(=O)c1cc([N+](=O)[O-])c2no[n+]([O-])c2c1 the activation was inactive: 17.2%.
In the case of O=C(O)COc1ccc([As](=O)(O)O)cc1[N+](=O)[O-], the activation is reported as inactive: -1.64%.
For Nc1ccccc1[As](=O)(O)c1ccccc1, the activation was inactive: 2.71%.
For NC(=O)Nc1ccc([As](=O)(O)O)cc1, the activation was inactive: 11.4%.
With N#CCCN(C(=O)COC(=O)C(O)(c1ccccc1)c1ccccc1)c1ccc(F)cc1 the activation was inactive: -16.9%.
With CN(C(=O)Cc1ccccc1)[C@@H]1CC[C@]2(CCCO2)C[C@H]1N1CCCC1 the activation was inactive: 22.8%.
In the case of CCOP1(=S)c2c(C)nn(CCC#N)c2N=C(c2ccc(F)cc2)N1C (centres undefined), the activation is reported as inactive: -11.8%.
For CN(C)C(=O)c1cc([N+](=O)[O-])cc2c1-c1c(cc([N+](=O)[O-])cc1[N+](=O)[O-])C2=O, the activation was inactive: -10.8%.
For O=[N+]([O-])c1ccc2c(c1)nnn2O, the activation was inactive: 20.9%.
For CN(C(=O)Cc1ccc(Cl)c(Cl)c1)[C@H]1CC[C@@]2(CCCO2)C[C@@H]1N1CCCC1, the activation was inactive: 15.7%.
For O=C(OC1CN2CCC1CC2)c1ccc(Cl)cc1 (centres undefined), the activation was inactive: 1.8%.
In the case of O=[As](O)(O)c1cccnc1, the activation is reported as inactive: 10.9%.
For CS(=O)(=O)c1ccc(Cl)c(NC(=O)COC(=O)C(O)(c2ccccc2)c2ccccc2)c1, the activation was inactive: -7.74%.
With O=[As](O)(c1cccc(O)c1)c1cccc(O)c1 the activation was inactive: -1.89%.
For Cc1cccc(OCC(=O)OC2CN3CCC2CC3)c1 (centres undefined), the activation was inactive: 21.6%.
With Cc1ccc(NCCc2c([N+](=O)[O-])cc([N+](=O)[O-])cc2[N+](=O)[O-])cc1 the activation was inactive: 20.8%.
For Nc1cccc2c([As](=O)(O)O)cccc12, the activation was inactive: 1.58%.
With CCCOP(=S)(Nc1nc(N)cc(=O)[nH]1)OCCC the activation was inactive: 11.1%.
In the case of C[C@H]1C(=O)O[C@@H]2CCN3CC=C(COC(=O)[C@](C)(O)[C@]1(C)O)[C@H]23, the activation is reported as inactive: 22.1%.
For COc1cc(C2NCCC3(OCCO3)C2(C)C)cc(OC)c1OC (centres undefined), the activation was inactive: 8.71%.
For CCOP(=O)(Nc1cccc2ccccc12)OCC, the activation was inactive: 16.3%.
In the case of Cc1c2c(nc3ccccc13)SC(C(Cl)Cl)C2 (centres undefined), the activation is reported as inactive: 12.9%.
In the case of O=C(OC1CN2CCC1CC2)C12CC3CC(CC(C3)C1)C2 (centres undefined), the activation is reported as inactive: 18.6%.
With Cc1cc(=O)[nH]c(N[N+](=O)[O-])n1 the activation was inactive: -7.2%.
For O=P1(N(CCCl)CCCl)Nc2ccccc2N1, the activation was inactive: 5.96%.
In the case of O=P1(N(CCCl)CCCl)OCCCN1CCCl (centres undefined), the activation is reported as inactive: 11.9%.
In the case of COc1ccc2nc(NP(=O)(c3ccccc3)c3ccccc3)sc2c1, the activation is reported as inactive: 7.31%.
In the case of COc1cc(I)ccc1[As](=O)(O)O, the activation is reported as inactive: 9.98%.
For O=[N+]([O-])c1cc(Oc2ccc([N+](=O)[O-])cc2C(F)(F)F)cc([N+](=O)[O-])c1, the activation was inactive: 1.77%.
For COc1ccc(N/C(=N/P(=O)(N2CCOCC2)N2CCOCC2)N2CCOCC2)cc1, the activation was inactive: 6.86%.
In the case of C[As](=O)(O)c1cccc(C(=O)O)c1, the activation is reported as inactive: 4.91%.
For O=[As](O)(c1ccc(O)cc1)c1ccccc1O, the activation was inactive: 17.8%.
In the case of O=[N+]([O-])c1ccc(-c2cc([N+](=O)[O-])c(O)c([N+](=O)[O-])c2)cc1, the activation is reported as inactive: -1.42%.
With Cc1ccc(OP(=O)(Nc2ccc([N+](=O)[O-])cn2)Oc2ccc(C)cc2)cc1 the activation was inactive: 11.2%.
For [N-]=[N+]=NC1CCCCC1NC(=O)c1cc([N+](=O)[O-])cc([N+](=O)[O-])c1 (centres undefined), the activation was inactive: 7.35%.
With CC(Cc1ccc(O)cc1)NCC(O)c1cc(O)cc(O)c1 (centres undefined) the activation was inactive: -0.31%.
In the case of Cc1ccc2nc3c(c(C)c2c1)CC(C(Cl)Cl)S3 (centres undefined), the activation is reported as inactive: 22.8%.
With ClCCSc1nnc(-c2cccnc2)o1 the activation was inactive: 13.7%.
In the case of CC(C)c1ccc(OP(=O)(Nc2ccccn2)Oc2ccccc2F)cc1 (centres undefined), the activation is reported as inactive: 0.66%.
For COC(=O)C1(C)COP(=O)(N2CCCCCC2)OC1 (centres undefined), the activation was inactive: 20.9%.
With CCN(CC)C(=S)SC(NC=O)C(Cl)(Cl)Cl (centres undefined) the activation was inactive: 3.73%.
In the case of O=C(OC1CN2CCC1CC2)c1cccc2[nH]cnc12 (centres undefined), the activation is reported as inactive: -13.6%.
In the case of CC(C)NC(=O)NP(=O)(Oc1ccccc1)Oc1ccccc1, the activation is reported as inactive: -7.01%.
In the case of O=[N+]([O-])c1cc([N+](=O)[O-])c(-c2ccn[nH]2)s1, the activation is reported as inactive: -0.95%.
With O=C(O)C(O)c1ccc(N(CCCl)CCCl)cc1 (centres undefined) the activation was inactive: -9.23%.
For CCOC(=O)Nc1ccc([As](=O)(O)O)c(O)c1, the activation was inactive: 18%.
With CC1CCNP(=O)(N(CCCl)CCCl)O1 (centres undefined) the activation was inactive: 0.19%.
For C/C=C1/CC(C)C(C)(O)C(=O)OCC2CCN3CCC(OC1=O)C23 (centres undefined), the activation was inactive: 21.9%.
For COP(=O)(OC)N1CC1c1ccccc1 (centres undefined), the activation was inactive: -15.2%.
With Cc1cc(SC(NC(=O)c2ccccc2)C(Cl)(Cl)Cl)nc(C(C)C)n1 (centres undefined) the activation was inactive: 0.26%.
For CCOC(=O)Nc1cccc([As](=O)(O)O)c1, the activation was inactive: -3.29%.
With Cc1cc(SC(NC=O)C(Cl)(Cl)Cl)ncn1 (centres undefined) the activation was inactive: 34%.
In the case of O=P(Nc1ccccn1)(c1cccc2ccccc12)c1cccc2ccccc12, the activation is reported as inactive: 23.4%.
For O=[N+]([O-])c1ccc(Nc2ccc(Oc3ccc([N+](=O)[O-])cc3[N+](=O)[O-])cc2)c([N+](=O)[O-])c1, the activation was inactive: -1.12%.
With COP1(=S)c2c(C)nn(CCC#N)c2N=C(c2ccc(F)cc2)N1C (centres undefined) the activation was inactive: 17.4%.
With COC(=O)C1(C)COP(=O)(N2CCCC2)OC1 (centres undefined) the activation was inactive: 8.14%.
With O=C(O)C(=O)c1ccc(N(CCCl)CCCl)cc1 the activation was inactive: 16.4%.
In the case of O=C(COc1ccccc1)OC1CN2CCC1CC2 (centres undefined), the activation is reported as inactive: 11.8%.
With O=C(Nc1ccncc1[N+](=O)[O-])c1ccc([N+](=O)[O-])cc1[N+](=O)[O-] the activation was inactive: -8.34%.
With O=C(OC1CN2CCC1CC2)c1cccc([N+](=O)[O-])c1 (centres undefined) the activation was inactive: 24%.
With CSc1ccc(Nc2c([N+](=O)[O-])cc([N+](=O)[O-])cc2[N+](=O)[O-])cc1 the activation was inactive: 3.22%.
With CCOC(=O)c1ccc(NC(=O)C(C)(CCl)SC)cc1 (centres undefined) the activation was inactive: 17.3%.
For CCC(C)N(CC(C)C)C(=S)SC(NC(C)=O)C(Cl)(Cl)Cl (centres undefined), the activation was inactive: 15%.
With COc1ccc(C2=NCC(CBr)S2)cc1 (centres undefined) the activation was inactive: 24.4%.
With Cc1ccc(NP(=O)(Oc2ccccc2)Oc2ccccc2)nc1 the activation was inactive: 6.81%.
For O=[N+]([O-])c1cc([N+](=O)[O-])c(CCNc2ccccc2)c([N+](=O)[O-])c1, the activation was inactive: 5.68%.
With CCc1nc2c(n1)c1c(non1O)c1c2no[n+]1[O-] the activation was inactive: 4.79%.
For CC(=O)N1C2C3N(C(C)=O)C1C1N(C(C)=O)C(C(N1C(C)=O)N3C(C)=O)N2C(C)=O, the activation was inactive: 18.2%.
In the case of O=[N+]([O-])c1cccc2n[nH]nc12, the activation is reported as inactive: -5.92%.
For CCN(/C(=N/P(=O)(N1CCOCC1)N1CCOCC1)N1CCOCC1)c1ccc(OC)cc1, the activation was inactive: 26.7%.
In the case of Nc1ccc([As](=O)(O)c2ccc(N)cc2)cc1, the activation is reported as inactive: 6.18%.
In the case of C[N+]1=C2C=CC=CC=C2SC12C([N+](=O)[O-])=CC([N+](=O)[O-])=C[C-]2[N+](=O)[O-] (centres undefined), the activation is reported as inactive: -13.8%.

From PubChem BioAssay AID602247 (The Scripps Research Institute Molecular Screening Center, 2012)
